# Compound activity from PubChem BioAssay.
# A selection: hits, their analogues and other compounds. The true share with any hit is near 2%.
# Rango release inh: inhibition of RanGTP-driven Rango-importin beta dissociation; Biochemical FRET Rango-importin beta, RanGTP-induced dissociation; Potency, µM (doses to about 46.1 µM); actives 0.071% (n = 340,000); calls by dose curve; note: nearly all actives have a fitted effect of over 45% in size
#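 FRET read at 45 min, room temperature: inhibitors block the CFP/YFP signal rise when RanGTP (0.6 uM Ran, 2 mM GTP, 0.2 uM RCC1) frees Rango (0.1 uM) from importin beta (0.25 uM). Pre-read after 5 min compound exposure flags interference.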
# Rango complex inh: inhibitors of Rango-importin beta complex formation; Rango CFP/YFP FRET sensor + importin beta, 45 min; Q14974; Potency, µM (titrated, usually from 92.2 µM); AID 540263; actives 0.031% (n = 340,000); calls by dose curve; note: nearly all actives have a fitted effect of over 15% in size
#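 Inhibition scored from the CFP 486 nm/YFP 530 nm FRET ratio 45 min after adding 0.125 microM importin beta to 50 nM Rango biosensor preincubated 5 min with compound (room temperature, PBS with DTT, Tween-20, BSA). No-importin wells as positive control.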
# Abeta rescue: A-beta toxicity reversal in yeast; yeast expressing A-beta42, growth rescue, OD600, 48 h; response scale: 0% DMSO, 100% iron-clioquinol control; Potency, µM (top dose mostly 46.1 µM), actives largely listed as activators; actives 0.063% (n = 410,000); AID 1347071; note: nearly all actives have a fitted effect of over 55% in size
#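 Yeast growth medium received pinned compounds, then yeast cells expressing toxic A-beta were added; plates incubated at 30 C for 48 hr. Growth read as absorbance at 600 nm, normalized to DMSO and equimolar FeCl3 plus clioquinol controls.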
# aSyn rescue: alpha-synuclein toxicity inhibition in yeast | Potency, µM (top dose mostly 46.1 µM), usual class: activators | Yeast expressing alpha-synuclein, growth rescue, BacTiter-Glo, 24 h | actives 0.14% (n = 370,000); note: nearly all actives have a fitted effect of over 65% in size
#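 Readout is rescue of growth in alpha-synuclein-expressing yeast, so inhibitors of toxicity appear as activators. Growth after 24 hr at 30 deg C in galactose medium is quantified by luminescence.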
# TDP-43 yeast inh: TDP-43 toxicity inhibition in yeast; TDP-43 expressing yeast growth rescue, BacTiter-Glo, 24 h; Potency, µM (series often up to 46.1 µM), most hits filed as activators; actives 1.8% (n = 410,000); AID 652104; note: nearly all actives have a fitted effect of over 50% in size
#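 Growth rescue of TDP-43-toxic yeast measured as ATP luminescence (BacTiter-Glo). Cells grown to mid-log in raffinose, induced in galactose at OD600=0.02, exposed to compound 24 hr at 30 deg C.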
# S-ASM inh: inhibitors of human secretory acid sphingomyelinase; P17405; placental ASM, HMU-PC fluorogenic substrate, 60 min; Potency, µM (doses to about 57.5 µM), actives largely listed as inhibitors; actives 0.006% (n = 340,000)
#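 Human placenta-derived ASM enzyme was preincubated with compound for 10 minutes at room temperature, then given fluorogenic substrate HMU-PC0 (9 uM final) for 60 minutes at 37 °C; a pH 10 stop preceded fluorescence reading at Ex 386/Em 447 nm.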
# Hits are given with their value; 0 = inactive; ? = inconclusive; - = no result. Unless noted, calls come from the whole dose curve; as a rule, active = well fitted curve in the direction sought with a large enough effect; inconclusive = small, poorly fitted or top-dose-only effect, or another doubt; inactive = no such curve, though single readings can be large; an effect the other way counts as inactive or inconclusive.
SMILES,Rango release inh,Rango complex inh,Abeta rescue,aSyn rescue,TDP-43 yeast inh,S-ASM inh
COc1cc(/C=C\C(=O)OCn2nnc3ccccc3c2=O)cc(OC)c1OC,0,0,0,?,20µM,0
Cc1ccc(CSC2=Nc3ccccc3C3=NC(CCC(=O)N4CCN(c5ccccc5)CC4)C(=O)N23)cc1 (stereo not given),-,-,0,-,0,-
Cc1ccc(CCNC(=O)c2ccc(CSCc3ccc(C)cc3)o2)cc1,-,-,0,-,0,-
CN(C)c1ccc(/C=C\C=C/c2ccnc3ccccc23)cc1,-,-,-,0,-,-
COc1cccc(SCC2(O)CCN(C(=O)c3ccc(Cl)cc3)CC2)c1,0,0,?,0,22.4µM,0
O=C(c1ccc(Cl)cc1)N1CCC(O)(CSc2ccc(Cl)cc2)CC1,0,0,0,?,35.5µM,0
CC(=O)c1ccc(N/N=C(/C(N)=O)C2=NC(C)(C)Cc3ccccc32)cc1,0,0,0,0,0,0
CC1(C)Cc2ccccc2C(/C(=N\Nc2cccc(Cl)c2)C(N)=O)=N1,0,0,0,0,15.8µM,0
Cc1cc(C)cc(NC(=O)C2CCN(S(=O)(=O)c3cn(C)cn3)CC2)c1,-,-,0,-,0,-
CCc1nn2c(=O)cc(COC(=O)c3cccs3)nc2s1,-,-,0,-,0,-
Cc1c(CCC(=O)N2CCC[C@H]2C(=O)O)c(=O)oc2cc3oc4c(c3cc12)CCCC4,0,0,0,0,20µM,0
Cc1coc2cc3oc(=O)c(CCC(=O)N4CCCCC4)c(C)c3cc12,-,-,0,-,22.4µM,-
Cc1c(CCC(=O)O)c(=O)oc2cc3oc4c(c3cc12)CCCC4,0,0,0,?,0,0
Cc1cc2c(cc1C)-c1nnnn1C(N1CCCC1)C(=O)N2 (stereo not given),-,-,0,0,0,-
Cc1cc2c(cc1C)-c1nnnn1C(N1CCC(Cc3ccccc3)CC1)C(=O)N2 (stereo not given),-,-,0,0,25.1µM,-
Cc1cc2oc(C(=O)Nc3sc4c(c3C(=O)NCC3CCCO3)CCC4)cc(=O)c2cc1C (stereo not given),-,-,0,-,0,-
Cc1cccc(CN2C(=O)N/C(=C/c3cc(C)n(-c4ccccn4)c3C)C2=O)c1,5.17µM,?,0,0,0,0
Cc1cc(/C=C2/NC(=O)N(Cc3ccccc3F)C2=O)c(C)n1-c1ccccn1,?,?,0,0,0,0
CC(=O)c1cccc(NC(=O)C2(C)Cc3c(-c4cccc(C(F)(F)F)c4)ccnc3O2)c1 (stereo not given),-,-,0,?,35.5µM,-
CC(=O)Nc1ccc(NC(=O)C2(C)Cc3c(-c4cccc(C(F)(F)F)c4)ccnc3O2)cc1 (stereo not given),-,-,0,0,0,-
CC1(C(=O)Nc2ccc(Cl)c(C(F)(F)F)c2)Cc2c(-c3ccccc3)ccnc2O1 (stereo not given),-,-,0,0,0,-
CC(=O)Nc1ccc(-c2ccnc3c2CC(C)(C(=O)Nc2ccc(Cl)c(C(F)(F)F)c2)O3)cc1 (stereo not given),-,-,0,0,35.5µM,-
COc1ccc2c(c1)c(CC(=O)Nc1cccc(F)c1C)c(C)n2C(=O)c1ccc(Cl)cc1,-,-,0,-,0,-
Cc1cc(Cc2cc(C)c(O)c(CO)c2)cc(CO)c1O,0,65.1µM,0,0,0,0
Cc1cc(Cc2ccc(N)c(C)c2)ccc1N,0,0,0,0,0,0
SMILES,Rango release inh,Rango complex inh,Abeta rescue,aSyn rescue,TDP-43 yeast inh,S-ASM inh
CCc1nc2ccc(C(=O)Nc3cc(-c4ccccc4)ccc3OC)cn2c1N(C)CCCc1ccccc1,-,-,0,0,20µM,-
CCc1nc2ccc(C(=O)Nc3cc(-c4ccccc4)ccc3OC)cn2c1N(C)CCC(C)C,-,-,0,0,0,-
COc1ccc(-c2nc(SCc3ccccc3)n(S(C)(=O)=O)n2)cc1,?,0,0,-,2.82µM,0
O=C(CCl)N1N=C(c2cccs2)CC1c1ccco1 (stereo not given),0,0,0,0,22.4µM,0
CCOC(=O)c1c(-c2ccc(F)cc2)csc1NC(=O)CCN1CCOCC1,0,?,0,0,0,0
CCOC(=O)c1c(-c2ccc(-c3ccccc3)cc2)csc1NC(=O)CCN1CCOCC1,0,0,0,0,14.1µM,?
Cc1ccc(NC(=O)CSc2nc(-c3cccs3)nc3cc(=O)[nH]n23)cc1,-,-,0,-,0,-
CNc1nc(C)c([N+](=O)[O-])c(Nc2ccc(OC)cc2)n1,0,0,0,0,12.6µM,0
Nc1nc(N)c2[nH]c(-c3ccccc3)nc2n1,0,0,0,0,12.6µM,0
Cc1ccc(O)c(N=Nc2ccccc2)n1,0,0,0,0,11.2µM,0
CCOC(=O)N/N=C/c1cn(CCCOc2ccccc2)c2ccccc12,0,0,0,0,11.2µM,0
CCOC(=O)N/N=C/c1cn(CCCOc2ccc(C)cc2)c2ccccc12,0,0,0,0,?,?
Cc1c(N2C(=O)/C(=C\c3ccc(N(C)C)cc3)N(C)C2=S)c(=O)n(-c2ccccc2)n1C,0,51.7µM,0,0,0,0
COc1ccc(COC(=O)C2CCN(S(=O)(=O)c3ccc(F)cc3)CC2)cc1,0,0,0,0,0,0
O=C(OCc1ccc([N+](=O)[O-])cc1)C1CCN(S(=O)(=O)c2ccccc2)CC1,0,0,0,0,10µM,0
Cc1ccc(C(=O)c2cn(Cc3cc(C)ccc3C)c3nc(C)ccc3c2=O)cc1,-,-,0,-,0,-
O=C1CC(N2CCN(c3ccccc3Cl)CC2)C(=O)N1c1cccc(F)c1 (stereo not given),0,0,0,0,12.6µM,0
O=C1CC(N2CCN(c3ccccc3Cl)CC2)C(=O)N1c1ccc(F)cc1 (stereo not given),0,0,0,0,?,0
Cc1c(C(=O)O)oc2c1-c1nn(Cc3ccccc3Cl)cc1CC2,-,-,0,-,15.8µM,-
CCOC(=O)c1oc2c(c1C)-c1nn(Cc3ccccc3Cl)cc1CC2,-,-,0,-,0,-
O=C(Nc1ccc(Cl)cc1F)c1cnc2sc(N3CCOCC3)nn2c1=O,-,-,0,-,0,-
COc1ccc(N2CCN(c3nc4c(c(=O)n(C)c(=O)n4C)n3Cc3ccccc3)CC2)cc1,0,0,0,0,0,0
CC1CCCN(c2nc3c(c(=O)n(C)c(=O)n3C)n2Cc2ccccc2)C1 (stereo not given),0,0,0,0,17.8µM,0
Nc1ncc(S(=O)(=O)NCc2cccc(Cl)c2)cn1,-,-,0,-,0,-
COC(=O)c1c(-c2ccc(OC)cc2)oc2ccccc12,0,0,0,0,0,0
COc1ccc2oc(-c3ccccc3)c(C(N)=O)c2c1,0,0,0,0,12.6µM,0
COc1ccc(-c2oc3ccccc3c2C(=O)Oc2ccccc2)cc1,0,0,0,0,3.55µM,0
